Source: US6048892A, “Ester compound pesticide containing thereof” (Sumitomo Chemical Company, Limited, priority 1999, dated 2000)

Tested on: houseflies (Musca domestica)
Assay: Biological Test 16: topical application of compound (1) with piperonyl butoxide, mortality
Format: in vivo
Conditions: compound (1) 0.5 + piperonyl butoxide 1.0 μg/female; after 24 hours
Procedure: The combination rate of piperonyl butoxide to the present compound was 0, 2, 4, 8 and 16 times. The mixture was dissolved in acetone. The acetone solution (0.5 μL) was applied to 10 female houseflies (Musca domestica) at the back thoracic region. After 24 hours, the number of dead insects was observed (2 repetition) and mortality was calculated.

## Cc1ccc(COC(=O)[C@@H]2[C@H](/C=C(\Cl)C(F)(F)F)C2(C)C)o1 (relative stereo) [Compound (1), 5-methyl-2-furfuryl (1RS,cis)-3-(Z-2-chloro-3,3,3-trifluoroprop-1-enyl)-2,2-dimethylcyclopropanecarboxylate]
  Mortality (%): 95%
